The numbers were not newly measured in patent publication US11321826B2, “High throughput method for accurate prediction of compound-induced liver injury” (AGENCY FOR SCIENCE, TECHNOLOGY AND RESEARCH, priority 2016, dated 2022), which cites them from elsewhere.

Structures are written as SMILES.

This data set has as its system human primary renal proximal tubular cells (HPTC) or HPTC-like cells. Particulars: cited from earlier work.

Take `C[C@H]1O[C@H](O[C@H]2[C@H](O)[C@@H](O)[C@@H](O[C@H]3[C@H](O)[C@@H](O)C(O)O[C@@H]3CO)O[C@@H]2CO)[C@H](O)[C@@H](O)[C@@H]1N[C@H]1C=C(CO)[C@@H](O)[C@H](O)[C@H]1O` (stereo partly shown) [acarbose]: the “toxicity for the human renal proximal tubular cells” value is “not toxic”.
